According to patent publication US12358949B2, “Defensin fragments for use in therapy or prophylaxis” (priority 2019, dated 2025):

Test system: human erythrocytes
Assay: Hemolytic assay
Type: cell-based
Details: at 1.25 μM
Method: Hemolytic activity was measured after an existing protocol^13. We obtained blood from two voluntary donors (sample collection had been previously approved by the Ethical Committee of the University Hospital of Tübingen, Germany) and 1 ml blood was washed with PBS two times. Afterwards we centrifuged the blood at 1000 g and performed a 1% (v/v) blood suspension in PBS. The blood suspension was incubated with different peptide concentrations (final concentration 0.5%) for one hour at 37° C. Then the samples were centrifuged at 1000 g for 10 minutes and the supernatant was collected and measured at 414 nm. […] These experiments were carried out in duplicates.

In the case of CC[C@H](C)[C@H](NC(=O)CN)C(=O)NCC(=O)N[C@@H](C)C(=O)N[C@H](C(=O)N[C@@H](CC(C)C)C(=O)N[C@@H](CCCCN)C(=O)N[C@H](C(=O)N[C@@H](CC(C)C)C(=O)N[C@H](C(=O)N[C@H](C(=O)NCC(=O)N[C@@H](CC(C)C)C(=O)N1CCC[C@H]1C(=O)N[C@@H](C)C(=O)N[C@@H](CC(C)C)C(=O)N[C@H](C(=O)N[C@@H](CO)C(=O)N[C@@H](Cc1c[nH]c2ccccc12)C(=O)N[C@H](C(=O)N[C@@H](CCCCN)C(=O)N[C@@H](CCCNC(=N)N)C(=O)N[C@@H](CCCCN)C(=O)N[C@@H](CCCNC(=N)N)C(=O)N[C@@H](CCC(N)=O)C(=O)N[C@@H](CCC(N)=O)C(N)=O)[C@@H](C)CC)[C@@H](C)CC)[C@@H](C)O)[C@@H](C)O)C(C)C)C(C)C [Melittin, reference compound], the hemolytic effect was 80%.
